Results from patent publication US11498896B2 (The Broad Institute, Inc., priority 2014, dated 2022).

Sequences of proteins named here, by UniProt entry; tags and fusion partners are left off. A change or cut given only in a name is not applied to a line headed by its entry.
UniProt P14416, whole entry: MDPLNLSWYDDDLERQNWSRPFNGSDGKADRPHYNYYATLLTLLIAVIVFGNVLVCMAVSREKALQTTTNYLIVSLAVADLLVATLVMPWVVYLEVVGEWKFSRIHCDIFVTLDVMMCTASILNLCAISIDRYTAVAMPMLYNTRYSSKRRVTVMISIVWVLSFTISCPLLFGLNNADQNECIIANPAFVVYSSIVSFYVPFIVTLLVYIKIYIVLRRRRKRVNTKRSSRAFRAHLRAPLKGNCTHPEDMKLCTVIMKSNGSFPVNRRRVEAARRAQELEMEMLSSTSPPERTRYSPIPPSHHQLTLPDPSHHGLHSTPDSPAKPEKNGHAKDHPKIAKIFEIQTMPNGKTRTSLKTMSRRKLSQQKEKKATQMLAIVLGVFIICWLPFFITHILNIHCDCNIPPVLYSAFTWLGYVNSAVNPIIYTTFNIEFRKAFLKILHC

Assays:
human D2R/β-arrestin [1] = target: T1, human D2R/β-arrestin (Homo sapiens (Human), UniProt P14416); assay: β-arrestin agonist assay (PathHunter); assay type: cell-based; settings: read-out: β-arrestin Agonist; CHO-K1 cells expressing human D2R/β-arrestin; agonist mode
human D2R/β-arrestin [2] = target: T1, human D2R/β-arrestin; assay: Gi/cAMP agonist assay (Lance Ultra cAMP, forskolin); assay type: cell-based; settings: read-out: cAMP Agonist; CHO-K1 cells expressing human D2R/β-arrestin; agonist mode, 2.5 μM forskolin
human D2R/β-arrestin [3] = target: T1, human D2R/β-arrestin; settings: read-out: β-arrestin Antagonist; CHO-K1 cells expressing human D2R/β-arrestin; antagonist mode, quinpirole 130 nM
human D2R/β-arrestin [4] = target: T1, human D2R/β-arrestin; settings: read-out: cAMP Antagonist; CHO-K1 cells expressing human D2R/β-arrestin; antagonist mode, 2.5 μM forskolin and 2.7 nM quinpirole

EC50 (human D2R/β-arrestin [1])	EC50 (human D2R/β-arrestin [2])	IC50 (human D2R/β-arrestin [3])	IC50 (human D2R/β-arrestin [4])	Compound
> 30 µM	0.1 to 1 µM	1 to 10 µM	< 0.1 µM	CC1(Oc2ccc(Cl)cc2)CCN(CCOc2ccccc2)C1 (single isomer, unassigned) [1b]
> 30 µM	> 30 µM	> 30 µM	> 30 µM	CC1(Oc2ccc(Cl)cc2)CCN(CCn2ccccc2=O)C1 (single isomer, unassigned) [7a]
< 0.1 µM	< 0.1 µM	0.1 to 1 µM	> 30 µM	CC1(Oc2ccc(Cl)cc2)CCN(CCOc2cccnc2)C1 (single isomer, unassigned) [12a]
> 30 µM	1 to 10 µM	> 30 µM	> 30 µM	CC1(Oc2ccc(Cl)cc2)CCN(CCn2ccccc2=O)C1 (single isomer, unassigned) [7b]
> 30 µM	> 30 µM	1 to 10 µM	0.1 to 1 µM	CC1(Oc2ccc(Cl)cc2)CCCN(CCOc2ccc3scnc3c2)C1 (single isomer, unassigned) [99a]
< 0.1 µM	< 0.1 µM	> 30 µM	> 30 µM	CC1(Oc2ccc(Cl)cc2)CCN(CCOc2cccnc2)C1 (single isomer, unassigned) [12b]
> 30 µM	> 30 µM	1 to 10 µM	0.1 to 1 µM	CC1(Oc2ccc(Cl)cc2)CCCN(CCOc2ccccc2F)C1 (single isomer, unassigned)
> 30 µM	< 0.1 µM	1 to 10 µM	> 30 µM	CC1(Oc2ccc(Cl)cc2)CCN(CCOc2ccc3ncsc3c2)C1 (single isomer, unassigned)
< 0.1 µM	< 0.1 µM	> 30 µM	> 30 µM	CC1(Oc2ccc(Cl)cc2)CCN(CC2COc3ccccc3O2)CC1 (single isomer, unassigned) [142a]
0.1 to 1 µM	< 0.1 µM	0.1 to 1 µM	10 to 30 µM	CC1(C(O)c2ccccc2)CCN(CCOc2ccccc2C(F)(F)F)CC1 (single isomer, unassigned) [107b]
> 30 µM	> 30 µM	0.1 to 1 µM	< 0.1 µM	Clc1ccc(N2CCCC23CCN(CC2COc4ccccc4O2)CC3)cc1 (single isomer, unassigned) [178a]
> 30 µM	0.1 to 1 µM	10 to 30 µM	> 30 µM	CC1(O)CCN(CC2COc3ccccc3O2)CC1 (single isomer, unassigned) [140a]
> 30 µM	< 0.1 µM	< 0.1 µM	< 0.1 µM	CC1(C(O)c2ccccc2)CCN(CCOc2ccccc2C(F)(F)F)CC1 (single isomer, unassigned) [107a]
> 30 µM	10 to 30 µM	0.1 to 1 µM	< 0.1 µM	Clc1ccc(N2CCCC23CCN(CC2COc4ccccc4O2)CC3)cc1 (single isomer, unassigned) [178b]
> 30 µM	> 30 µM	1 to 10 µM	0.1 to 1 µM	CC1(Oc2cccc(C(F)(F)F)c2)CCN(CCOc2ccccc2)C1 (single isomer, unassigned) [55a]
> 30 µM	0.1 to 1 µM	10 to 30 µM	> 30 µM	CC1(Oc2ccncc2)CCN(CCOc2ccccc2)C1 (single isomer, unassigned)
0.1 to 1 µM	< 0.1 µM	0.1 to 1 µM	> 30 µM	CC1(O)CCN(CC2COc3ccccc3O2)CC1 (single isomer, unassigned) [140b]
1 to 10 µM	0.1 to 1 µM	> 30 µM	> 30 µM	CC1(Oc2ccc(Cl)cc2)CCN(CC2COc3ccccc3O2)CC1 (single isomer, unassigned) [142b]
> 30 µM	> 30 µM	10 to 30 µM	1 to 10 µM	CC1(Oc2ccc(Cl)cc2)CCCN(CCOc2ccc3scnc3c2)C1 (single isomer, unassigned) [99b]
> 30 µM	< 0.1 µM	10 to 30 µM	> 30 µM	CC1(Oc2cccc(C(F)(F)F)c2)CCN(CCOc2ccccc2)C1 (single isomer, unassigned) [55b]
> 30 µM	< 0.1 µM	0.1 to 1 µM	> 30 µM	CC1(Oc2ccc(Cl)cc2)CCN(CCOc2ccccc2)C1 (single isomer, unassigned) [1a]
> 30 µM	> 30 µM	0.1 to 1 µM	0.1 to 1 µM	FC(F)(F)c1ccccc1OCCN1CCC2(CC1)CC2c1ccccc1 (single isomer, unassigned)
> 30 µM	> 30 µM	1 to 10 µM	0.1 to 1 µM	CC1(Oc2ccc(Cl)cc2)CCCN(CCOc2ccccc2)C1 (single isomer, unassigned)

Like-named read-outs stand apart in the source and are kept apart here.
